Data from patent US7244578B2, “Methods for modeling infectious disease and chemosensitivity in cultured cells and tissues” (Department of Veterans Affairs, priority 2001, dated 2007).

Tested on: immortalized human renal cells
Experiment: chemosensitivity of renal cells to gentamicin, apoptotic and necrotic cells counted by flow cytometry
Type: cell-based
Settings: 3D cultures in a rotating wall vessel; gentamicin 0.05, 0.5, 5 or 50 mg/ml; DMEM/F12 with 10% calf serum; not seen in monolayer or bag culture on beads
Procedure: Immortalized human renal cells were cultured for 24 hours in either a monolayer (diamonds), as 3D cultures in a bag with beads for support (squares), or as 3D cultures in a rotating wall vessel (triangles), and treated with 0.05, 0.5, 5 or 50 mg/ml throughout the time period of the culture.
In order to compare the chemosensitivity of cells in a monolayer relative to those in a 3D aggregate either under static conditions, or falling at terminal velocity with applied shear, immortalized human renal cells were cultured in DMEM/F12 medium with 10% calf serum for 24 hours in either a Monolayer, a conventional cell bag culture or a rotating wall vessel. In separate aliquots of cells in separate vessels, gentamicin was added throughout the time period of culture at concentrations of 0.05, 0.5, 5 or 50 mg/ml. The cells in all cultures were then treated with gentamicin for six hours and the number of apoptotic and necrotic cells were counted using a flow cytometry assay. FIG. 10 depicts one data set for this experiment in which the monolayer is depicted as diamonds, the 3-dimensional cultures grown on beads in a bag are depicted as squares, and the 3-dimensional cultures in the rotating wall vessel are depicted as triangles. As judged by Kogomorov-Smirnoff summation statistics, renal cell growth on beads under static condition increases basal cell death rates.

In the case of gentamicin, the “cell death (number of apoptotic and necrotic cells) in response to gentamicin” value is reported as “induced dose-dependent cell death”.
